The target of experiment [1] is eYFP receptor structure (Aequorea victoria, UniProt P42212, H231L/S65G/S72A/T203Y/V68L). Put plainly: Same measurement in control cells with artificial transmembrane protein containing eYFP as the receptor structure. Particulars: living cells expressing the eYFP artificial transmembrane protein; signal remains constant at the baseline.
Experiment [2] addresses Grb2 receptor structure (Grb2 SH3 domain) (Homo sapiens, UniProt P62993). In words: Real-time label-free signal of living cells with artificial transmembrane protein containing Grb2 as the receptor structure, after peptide injection.

Chains of the proteins cited; added tags and fusions are not shown. Lines headed by an entry give the natural chain unless they say otherwise; changes in a name come on top.
UniProt P62993: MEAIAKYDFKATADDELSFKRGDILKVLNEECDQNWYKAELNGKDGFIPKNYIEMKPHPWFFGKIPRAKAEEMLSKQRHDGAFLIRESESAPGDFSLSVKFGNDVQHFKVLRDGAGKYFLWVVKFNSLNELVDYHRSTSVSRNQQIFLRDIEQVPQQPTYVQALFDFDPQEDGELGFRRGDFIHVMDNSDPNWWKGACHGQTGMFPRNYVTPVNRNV

Consider “KKWKMRRNPFWIKIQRC-CGIRVVDNSPPPPLPPRRRRSAPSPTRV-amide”, for which, in experiment [1], the “binding to non-specific receptor structure eYFP” value is recorded as “does not bind”. Also, the “time the signal remains within the baseline after injection of the peptide (lag before response)” value in experiment [2] (lag presumably time for the peptide to diffuse across the cell membrane and bind the Grb2 SH3 domain) is recorded as “about 20 minutes”. The “binding to the Grb2 receptor structure inside living cells” value in experiment [2] (living cells expressing the Grb2 artificial transmembrane protein, FIG. 4d, response increases) was “specifically binds”.
